Target: T1, Hypoxanthine-guanine phosphoribosyltransferase (Homo sapiens, UniProt P00492)
T1 sequence (P00492 whole entry): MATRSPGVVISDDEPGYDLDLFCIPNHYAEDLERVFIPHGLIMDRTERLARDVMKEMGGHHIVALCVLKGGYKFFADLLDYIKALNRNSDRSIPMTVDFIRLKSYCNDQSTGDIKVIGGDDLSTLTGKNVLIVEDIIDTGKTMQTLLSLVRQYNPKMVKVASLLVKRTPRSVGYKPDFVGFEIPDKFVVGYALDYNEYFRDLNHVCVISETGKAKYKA
Assay: Inhibition of human HGPRT using fixed concentration of guanine and variable concentrations of PRib-PP as substrate by spectrophotometric analysis

Row | SMILES | Ki [nM]
1 | O=C(CCP(=O)(O)O)N1C[C@@H](n2cnc3c(O)ncnc32)[C@H](OC[C@@H](O)P(=O)(O)O)C1 | 1
2 | O=C(CCP(=O)(O)O)N1C[C@@H](n2cnc3c(O)ncnc32)[C@H](OC[C@H](O)P(=O)(O)O)C1 | 8
